This is a selection; strong and weak results do not stand in their true shares. Calls of active or inactive are those of the source.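 How the source made its calls: active means inhibition above about 30% (limit read from the data); inactive means the rest.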

By UniProt entry, the sequences of proteins in these tests, tags left out.
UniProt P14598, whole entry: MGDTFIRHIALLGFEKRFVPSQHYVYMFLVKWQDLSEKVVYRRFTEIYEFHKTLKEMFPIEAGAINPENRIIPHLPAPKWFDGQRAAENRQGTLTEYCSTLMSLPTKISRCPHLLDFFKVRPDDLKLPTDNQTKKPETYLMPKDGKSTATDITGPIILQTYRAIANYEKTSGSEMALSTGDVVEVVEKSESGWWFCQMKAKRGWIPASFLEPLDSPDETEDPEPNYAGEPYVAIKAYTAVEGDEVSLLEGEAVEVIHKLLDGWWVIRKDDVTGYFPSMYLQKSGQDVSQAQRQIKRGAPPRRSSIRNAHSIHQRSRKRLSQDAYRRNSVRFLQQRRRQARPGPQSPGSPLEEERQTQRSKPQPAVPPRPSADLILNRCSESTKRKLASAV

The test has as its target Neutrophil cytosol factor 1 (Homo sapiens) (UniProt P14598). As to the kind of experiment: blockers of p47phox binding to p22phox – biochemical, uHTS, NADPH oxidase regulatory subunit, primary screen (AID 1274).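 Further: 0% = p47phox with labelled peptide and 100% = labelled peptide alone.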 The settings on record: p47phox/p22phox peptide binding, fluorescence polarization, 2 h; at 24.7 µM; stronger effect = higher value. (In general: Polarisation of emitted light reports the rotation of a fluorescent probe.)
The inhibition is the change of the read-out against control, counted positive when it falls. Consider `O=[As](O)(c1ccccc1Br)c1ccccc1Br`, for which the inhibition was inactive: -2.86%.

The values are drawn from PubChem BioAssay AID1274 (Emory University Molecular Libraries Screening Center, 2008).
